Laboratory results taken from BindingDB's records for doi:10.1016/j.bmc.2007.01.011 (Pomona College, 2007).

By UniProt entry, the sequences of proteins in these tests, tags left out. Where a name states a change or a piece, a line headed by the entry shows the natural chain unless it says otherwise.
UniProt P08254: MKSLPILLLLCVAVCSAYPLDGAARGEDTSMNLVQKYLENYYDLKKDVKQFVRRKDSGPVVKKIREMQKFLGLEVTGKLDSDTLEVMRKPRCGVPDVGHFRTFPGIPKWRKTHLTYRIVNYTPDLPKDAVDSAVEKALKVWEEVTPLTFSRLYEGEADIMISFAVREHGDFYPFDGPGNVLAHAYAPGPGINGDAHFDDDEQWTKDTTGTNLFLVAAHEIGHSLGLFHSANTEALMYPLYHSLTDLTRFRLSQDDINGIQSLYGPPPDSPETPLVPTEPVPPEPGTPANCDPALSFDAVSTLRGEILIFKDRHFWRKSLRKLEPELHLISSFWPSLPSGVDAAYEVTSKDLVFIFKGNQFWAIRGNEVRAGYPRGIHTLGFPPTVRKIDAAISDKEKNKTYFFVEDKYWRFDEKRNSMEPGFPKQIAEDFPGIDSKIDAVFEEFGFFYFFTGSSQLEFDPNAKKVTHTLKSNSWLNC

How the values were obtained:
Stromelysin-1 = Stromelysin-1 (Homo sapiens, UniProt P08254)
Interstitial collagenase = molecular target: T1, Interstitial collagenase (Homo sapiens, UniProt P03956)
T1 sequence (P03956 whole entry): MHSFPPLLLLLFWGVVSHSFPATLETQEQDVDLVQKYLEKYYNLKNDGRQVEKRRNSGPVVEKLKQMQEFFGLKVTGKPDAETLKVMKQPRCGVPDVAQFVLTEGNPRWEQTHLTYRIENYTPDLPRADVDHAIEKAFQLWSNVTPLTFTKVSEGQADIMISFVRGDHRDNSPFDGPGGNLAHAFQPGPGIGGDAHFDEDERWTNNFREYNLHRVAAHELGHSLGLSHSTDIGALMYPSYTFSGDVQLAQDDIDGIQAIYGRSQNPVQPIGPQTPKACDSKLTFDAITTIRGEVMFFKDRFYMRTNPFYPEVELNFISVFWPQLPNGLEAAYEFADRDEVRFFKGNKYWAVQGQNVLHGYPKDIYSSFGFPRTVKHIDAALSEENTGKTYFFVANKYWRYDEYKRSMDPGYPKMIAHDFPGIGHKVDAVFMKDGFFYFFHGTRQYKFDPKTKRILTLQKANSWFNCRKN

Collagenase 3 = Collagenase 3 (Homo sapiens, UniProt P45452)

SMILES: CC(C)CN(CC(=O)NO)S(=O)(=O)c1ccc(OCC2CCCCC2)cc1 [2-{[4-(cyclohexylmethoxy)benzene](2-methylpropyl)sulfonamido}-N-hydroxyacetamide]
- Ki (Stromelysin-1): 60 nM

SMILES: CCc1cccc2c(N(Cc3ccccc3)S(=O)(=O)c3ccc(OC)cc3)c(C(=O)NO)cnc12 [4-[Benzyl-(4-methoxy-benzenesulfonyl)-amino]-8-ethyl-quinoline-3-carboxylic acid hydroxyamide]
- IC50 (Interstitial collagenase): 191 nM

SMILES: COc1ccc(S(=O)(=O)N2CCN(C(=O)COc3ccccc3)CC2C(=O)NO)cc1 (stereo not drawn) [N-hydroxy-1-(4-methoxyphenylsulfonyl)-4-(2-phenoxyacetyl)piperazine-2-carboxamide]
- IC50 (Collagenase 3): 2.2 nM
